The chains behind the UniProt entries cited, without tags or fusion partners. Where a name states a change or a piece, a line headed by the entry shows the natural chain unless it says otherwise.
UniProt Q00987: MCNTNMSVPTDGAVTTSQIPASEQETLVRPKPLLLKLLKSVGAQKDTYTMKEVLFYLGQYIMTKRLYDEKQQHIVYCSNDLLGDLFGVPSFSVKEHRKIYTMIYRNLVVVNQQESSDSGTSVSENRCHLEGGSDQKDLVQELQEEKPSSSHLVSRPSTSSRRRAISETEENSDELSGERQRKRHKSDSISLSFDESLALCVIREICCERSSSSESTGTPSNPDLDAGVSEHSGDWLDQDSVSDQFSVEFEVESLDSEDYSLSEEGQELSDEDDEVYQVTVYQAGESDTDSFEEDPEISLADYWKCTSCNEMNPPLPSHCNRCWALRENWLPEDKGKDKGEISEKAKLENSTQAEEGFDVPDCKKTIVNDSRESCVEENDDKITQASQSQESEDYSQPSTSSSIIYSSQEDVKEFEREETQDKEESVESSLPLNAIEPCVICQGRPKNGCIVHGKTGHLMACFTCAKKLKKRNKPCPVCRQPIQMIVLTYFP

According to US11242511B2, “Cytoplasmic protein complex comprising a kinase substrate sensor, cells comprising the complex, and associated detection methods” (VIB VZW, priority 2011, dated 2022):

Target: interaction between p53 and MDM2 (Homo sapiens, UniProt Q00987)
Assay: Tyk2(C) kinase substrate sensor luciferase reporter assay, p53(N)/MDM2 interaction
Conditions: HEK293-T cells, FIG. 4

Nutlin-3
signal from control transfection with unfused gp130 receptor fragment (pMet7-HA-Tyk2(C)-p53(N)+pMG1, 0-3333 nM): unaffected | signal for the interaction between p53 (N-terminal region) and MDM2 (pMet7-HA-Tyk2(C)-p53(N)+pMG2-MDM2, 0-14-41-123-370-1111-3333 nM, added 24 hours after transfection): dose-dependent decrease
